We go through 1 sequence from US20250076288A1, “STABILIZED PEPTIDES FOR BIOMARKER DETECTION” (Dana-Farber Cancer Institute, Inc., priority 2018, published 2025).

The chains behind the UniProt entries cited, without tags or fusion partners.
UniProt Q00987, whole entry: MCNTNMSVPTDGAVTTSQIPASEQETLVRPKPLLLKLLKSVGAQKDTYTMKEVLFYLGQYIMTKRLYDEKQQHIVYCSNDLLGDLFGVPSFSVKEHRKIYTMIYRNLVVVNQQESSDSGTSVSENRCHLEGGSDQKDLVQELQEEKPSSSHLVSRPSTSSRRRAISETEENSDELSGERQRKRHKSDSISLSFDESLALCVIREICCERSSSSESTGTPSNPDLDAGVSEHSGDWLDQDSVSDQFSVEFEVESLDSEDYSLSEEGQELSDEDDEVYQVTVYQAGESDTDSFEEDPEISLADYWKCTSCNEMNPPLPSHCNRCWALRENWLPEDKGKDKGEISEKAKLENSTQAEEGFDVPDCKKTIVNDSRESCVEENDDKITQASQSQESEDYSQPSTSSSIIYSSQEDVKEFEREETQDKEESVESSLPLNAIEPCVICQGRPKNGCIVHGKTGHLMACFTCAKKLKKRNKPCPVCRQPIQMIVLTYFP

In the assay the target is T1, HDM2 (Homo sapiens, UniProt Q00987).
T1 construct: expressed in transfected cells; co-transfected with GBP-LaminB1
Briefly: Colocalization of biotin-labeled stapled peptide with GFP-HDM2 in transfected fixed cells. The note with it: co-transfection with GBP-LaminB1, fixed cells, FIGS. 8A-C. The assay is classed as cell-based. An excerpt: In this example, a stapled p53 peptide that targets HDM2 was labeled with biotin as described above (see, e.g., FIG. 1 and Examples 3 and 4) to detect HDM2 in cells and tissues. The construct and approach was validated in cells transfected with GFP-labeled HDM2 and assessed for colocalization with the HDM2-targeting, biotin-labeled stapled peptide, ATSP-7041 (SEQ ID NO:26).

On to LTFZEYWAQOXSAA [ATSP-7041], for which the “colocalization with GFP-HDM2 relocalized to the nuclear lamina” value is “Colocalization was successfully demonstrated”.
